The source of these data is patent US11396497B2, “Proteasome inhibitors” (New Mexico Tech University Research Park Corporation, priority 2018, dated 2022).

By UniProt entry, the sequences of proteins in these tests, tags left out. Residues count along the entry.
UniProt P28074, 60-263: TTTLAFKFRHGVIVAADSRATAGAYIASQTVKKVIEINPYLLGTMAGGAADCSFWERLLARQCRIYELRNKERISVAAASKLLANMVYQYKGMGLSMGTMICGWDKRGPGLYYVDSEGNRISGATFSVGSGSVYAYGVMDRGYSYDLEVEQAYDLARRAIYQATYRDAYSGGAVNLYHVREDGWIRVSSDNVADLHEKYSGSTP

In this assay the target is T1, chymotrypsin-like activity of the 26S proteasome (Homo sapiens, UniProt P28074).
T1 construct: endogenous in cells; host or cells: Jurkat (ATCC TIB-152, E6-1 clone) cell lysate
The assay is described as follows: Proteasome assay, chymotrypsin-like (ChT-L) activity, Suc-LLVY-AMC, Jurkat cell lysate. It is filed as biochemical. Here is the method: The lysate was stored at −80° C. until the sample was used for the proteasome assay.
The compounds were diluted with lysis buffer; 10 μL of the compound-containing solution was added to the test wells at ten times the final concentration. […] The results are reported as the average of at least 3 technical replicates of IC50 values for proteasome inhibition.

In the case of `CC[C@H](C)[C@@H]1C(=O)O[C@H]1C(=O)NCC(=O)N[C@H](C(=O)OCc1ccccc1)C(C)C` [Compound 10a, Benzyl ((2R,3S)-3-((S)-sec-butyl)-4-oxooxetane-2-carbonyl)glycyl-L-valinate], the “subunit selectivity, ChT-L over T-L (in words)” value is “reduced selectivity”.
